Our source for the Ki values is ChEMBL document CHEMBL4033748, “SAR and characterization of non-substrate isoindoline urea inhibitors of nicotinamide phosphoribosyltransferase (NAMPT)” (Bioorg Med Chem Lett, 2017).

The chains behind the UniProt entries cited, without tags or fusion partners. Where a name states a change or a piece, a line headed by the entry shows the natural chain unless it says otherwise.
UniProt P43490: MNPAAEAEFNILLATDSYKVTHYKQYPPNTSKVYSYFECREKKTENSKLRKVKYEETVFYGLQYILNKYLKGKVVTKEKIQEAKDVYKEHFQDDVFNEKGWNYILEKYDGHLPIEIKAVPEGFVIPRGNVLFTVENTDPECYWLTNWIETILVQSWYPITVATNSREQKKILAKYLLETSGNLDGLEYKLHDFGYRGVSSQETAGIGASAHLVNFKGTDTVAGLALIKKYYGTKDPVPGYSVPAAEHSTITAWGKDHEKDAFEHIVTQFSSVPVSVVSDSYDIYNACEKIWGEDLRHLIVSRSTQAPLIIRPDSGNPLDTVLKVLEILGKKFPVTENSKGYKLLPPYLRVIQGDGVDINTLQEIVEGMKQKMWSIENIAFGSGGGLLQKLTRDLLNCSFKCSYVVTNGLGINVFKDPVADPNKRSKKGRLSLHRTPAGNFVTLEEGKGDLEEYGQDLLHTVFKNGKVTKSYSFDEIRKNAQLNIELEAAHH

The target of the assay is Nicotinamide phosphoribosyltransferase (Homo sapiens, UniProt P43490).
Molecule `CC(C)C(=O)N1CCC(c2ccc(NC(=O)N3Cc4ccccc4C3)cc2)CC1` registered an inhibition constant (Ki) of 0.015 µM.
With `O=C(NCC1CCCOC1)c1ccc(NC(=O)N2Cc3ccccc3C2)cc1` (stereo not given) the figure was 0.013 µM; with `Cc1ccc2c(c1)CN(C(=O)Nc1ccc(C(=O)NCCC(C)C)cc1)C2`, 0.013 µM; with `O=C(NCCCc1ccccc1)c1ccc(NC(=O)N2Cc3ccccc3C2)cc1`, 0.009 µM.
With `O=C(NCCCCC1CCN(C(=O)c2ccccc2)CC1)N1Cc2ccccc2C1` the figure was 0.0016 µM; with `O=C(Nc1ccc(C2=CCN(C(=O)c3ccccc3)CC2)cc1)N1Cc2ccccc2C1`, 0.003 µM; with `CC(C)CCn1cc(-c2ccc(NC(=O)N3Cc4ccccc4C3)cc2)cn1`, 0.023 µM.
Turning to `CC(C)C[C@@H](CO)NC(=O)c1ccc(NC(=O)N2Cc3ccccc3C2)cc1`, the affinity corresponds to a Ki of 0.019 µM.
With `CC(C)CCNC(=O)c1ccc(NC(=O)N2Cc3ccccc3C2)cc1` the figure was 0.011 µM; with `O=C(NCc1ccccc1)c1ccc(NC(=O)N2Cc3ccccc3C2)cc1`, 0.019 µM; with `CC(C)(C)CCNC(=O)c1ccc(NC(=O)N2Cc3ccccc3C2)cc1`, 0.014 µM.
Molecule `CC(C)CCNC(=O)c1ccc(NC(=O)N2Cc3ccc(F)cc3C2)cc1` yielded a Ki of 0.0079 µM.
For `CC(C)CCNC(=O)c1ccc(NC(=O)N2Cc3cccc(Cl)c3C2)cc1` the value was 0.017 µM; for `NC(=O)c1ccc(NC(=O)N2Cc3ccccc3C2)cc1`, 0.56 µM; for `O=C(Nc1ccc(N2CCN(C(=O)c3ccccc3)CC2)cc1)N1Cc2ccccc2C1`, 0.019 µM.
With `O=C(Nc1ccc(C2CCN(C(=O)c3ccccc3)CC2)cc1)N1Cc2ccccc2C1` the figure was 0.001 µM.
For `O=C(NCC1CCOC1)c1ccc(NC(=O)N2Cc3ccccc3C2)cc1` (stereo not given) the value was 0.024 µM.
Turning to `CC(C)CCNC(=O)c1ccc(NC(=O)N2Cc3ccncc3C2)cc1`, the Ki worked out at 0.0075 µM.
With `CC(C)CCNC(=O)c1ccc(NC(=O)N2Cc3ccc(C(F)(F)F)cc3C2)cc1` the figure was 0.023 µM.
In the case of `CC(C)CCNC(=O)c1ccc(NC(=O)N2Cc3ccccc3C2)nc1`, the inhibition constant (Ki) came out at 0.0054 µM.

In general, Ki refers to the equilibrium dissociation constant of an inhibitor or competing ligand from its target. High values mean a looser hold on the target, low ones a stronger hold on the target.
